What was measured:
[1] = biological target: T1, 5-hydroxytryptamine receptor 4 (Rattus norvegicus, UniProt Q62758); experiment: Binding affinity at 5-hydroxytryptamine 4 receptor in rat striatum by [3H]GR-113808 displacement.; format: tissue-based
[2] = biological target: T1, 5-hydroxytryptamine receptor 4; experiment: In vitro relaxation of carbachol pre-contracted rat oesophageal TMM.; format: functional
[3] = biological target: Serotonin 3 (5-HT3) receptor (Rattus norvegicus, UniProt P35563+Q9JJ16); experiment: Binding affinity at 5-hydroxytryptamine 3 receptor in rat entorhinal cortex by [3H]BRL-43694 displacement.; format: tissue-based

Amino acid sequences for entries named in this document (tags omitted). A change or cut given only in a name is not applied to a line headed by its entry.
UniProt Q62758: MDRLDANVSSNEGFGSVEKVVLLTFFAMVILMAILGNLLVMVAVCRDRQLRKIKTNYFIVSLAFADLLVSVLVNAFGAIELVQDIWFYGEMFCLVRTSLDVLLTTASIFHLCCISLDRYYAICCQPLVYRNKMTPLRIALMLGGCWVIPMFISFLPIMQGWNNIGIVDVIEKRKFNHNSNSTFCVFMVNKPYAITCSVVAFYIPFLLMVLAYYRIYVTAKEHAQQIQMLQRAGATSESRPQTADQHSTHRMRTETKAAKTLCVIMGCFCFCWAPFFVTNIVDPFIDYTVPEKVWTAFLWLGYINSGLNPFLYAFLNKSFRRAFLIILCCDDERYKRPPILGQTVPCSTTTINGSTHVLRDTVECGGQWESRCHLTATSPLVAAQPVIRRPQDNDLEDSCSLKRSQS
UniProt P35563, whole entry: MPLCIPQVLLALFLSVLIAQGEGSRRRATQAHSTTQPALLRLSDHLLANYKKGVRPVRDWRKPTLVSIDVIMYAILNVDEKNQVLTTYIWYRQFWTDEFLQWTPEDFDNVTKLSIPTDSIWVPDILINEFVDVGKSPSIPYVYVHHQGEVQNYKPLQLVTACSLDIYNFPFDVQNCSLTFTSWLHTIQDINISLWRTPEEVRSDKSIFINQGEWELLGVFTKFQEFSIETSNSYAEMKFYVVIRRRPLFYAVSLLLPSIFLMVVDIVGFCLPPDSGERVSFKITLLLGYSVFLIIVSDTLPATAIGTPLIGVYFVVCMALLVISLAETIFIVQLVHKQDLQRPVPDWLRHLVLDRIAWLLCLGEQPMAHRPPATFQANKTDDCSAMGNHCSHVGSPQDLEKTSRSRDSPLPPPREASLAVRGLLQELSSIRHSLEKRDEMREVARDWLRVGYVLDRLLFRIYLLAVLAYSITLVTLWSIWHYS
UniProt Q9JJ16: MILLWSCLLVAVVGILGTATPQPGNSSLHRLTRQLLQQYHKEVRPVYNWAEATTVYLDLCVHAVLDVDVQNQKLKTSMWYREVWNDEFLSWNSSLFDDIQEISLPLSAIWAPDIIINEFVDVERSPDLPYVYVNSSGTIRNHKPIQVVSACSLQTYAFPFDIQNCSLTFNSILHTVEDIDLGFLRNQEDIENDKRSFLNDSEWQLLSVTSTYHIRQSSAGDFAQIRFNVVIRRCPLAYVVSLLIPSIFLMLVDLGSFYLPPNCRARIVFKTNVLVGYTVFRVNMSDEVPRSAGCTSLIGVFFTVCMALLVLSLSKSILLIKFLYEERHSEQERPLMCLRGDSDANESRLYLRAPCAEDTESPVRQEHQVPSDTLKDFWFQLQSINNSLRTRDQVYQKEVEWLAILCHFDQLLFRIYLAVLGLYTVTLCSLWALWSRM

Compound	Ki [1] [nM]	EC50 [2] [nM]	Ki [3] [nM]
CCN(CC)CCNC(=O)c1cc(Cl)c(N)cc1OC [METOCLOPRAMIDE]	900	1920	–
NCCc1c[nH]c2ccc(O)cc12 [SEROTONIN]	37.4	17.1	87

Reference: ChEMBL document CHEMBL1128962, “Serotoninergic 5-HT3 and 5-HT4 receptor activities of dihydrobenzofuran carboxylic acid derivatives” (Bioorg Med Chem Lett, 1996)
